Tests used:
P2X purinoceptor 7 = P2X purinoceptor 7 (Homo sapiens, UniProt Q99572); test: Antagonist activity at recombinant human P2X7 receptor assessed as inhibition of BzATP-mediated Yo-Pro uptake measured for 1 hr by FLIPR assay
P2X purinoceptor 3 = biological target: T1, P2X purinoceptor 3 (Homo sapiens, UniProt P56373); test: Antagonist activity at human P2X3 receptor
T1 sequence (P56373 whole entry): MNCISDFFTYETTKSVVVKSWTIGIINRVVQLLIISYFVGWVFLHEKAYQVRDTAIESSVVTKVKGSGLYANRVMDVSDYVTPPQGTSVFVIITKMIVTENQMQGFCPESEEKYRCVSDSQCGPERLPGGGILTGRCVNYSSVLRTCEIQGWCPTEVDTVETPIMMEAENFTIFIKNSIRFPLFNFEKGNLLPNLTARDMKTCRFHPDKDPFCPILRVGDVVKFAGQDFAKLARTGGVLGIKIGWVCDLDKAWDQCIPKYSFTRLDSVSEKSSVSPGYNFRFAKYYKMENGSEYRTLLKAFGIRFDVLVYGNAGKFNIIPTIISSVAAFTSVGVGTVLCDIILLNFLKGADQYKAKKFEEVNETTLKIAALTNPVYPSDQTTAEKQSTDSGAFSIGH

Amino acid sequences for entries named in this document (tags omitted). A change or cut given only in a name is not applied to a line headed by its entry.
UniProt Q99572: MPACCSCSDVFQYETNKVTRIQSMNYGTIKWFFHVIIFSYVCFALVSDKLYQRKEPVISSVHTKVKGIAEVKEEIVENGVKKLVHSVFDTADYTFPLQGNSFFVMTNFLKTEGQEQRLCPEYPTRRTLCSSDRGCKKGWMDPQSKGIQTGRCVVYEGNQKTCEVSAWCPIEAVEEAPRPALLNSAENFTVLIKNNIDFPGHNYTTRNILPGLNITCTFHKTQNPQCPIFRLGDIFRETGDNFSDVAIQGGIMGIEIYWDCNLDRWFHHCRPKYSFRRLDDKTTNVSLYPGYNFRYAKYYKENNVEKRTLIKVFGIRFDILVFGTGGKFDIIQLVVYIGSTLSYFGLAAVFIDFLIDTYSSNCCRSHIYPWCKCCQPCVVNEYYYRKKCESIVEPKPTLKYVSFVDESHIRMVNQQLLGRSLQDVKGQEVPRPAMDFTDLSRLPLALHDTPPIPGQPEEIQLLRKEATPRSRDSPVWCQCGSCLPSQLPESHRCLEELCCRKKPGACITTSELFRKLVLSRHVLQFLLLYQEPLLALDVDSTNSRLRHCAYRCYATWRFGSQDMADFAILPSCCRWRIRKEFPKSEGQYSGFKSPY

IC50 (P2X purinoceptor 7): 1180 nM | IC50 (P2X purinoceptor 3): 240 nM
SMILES: Cc1nc(/N=N/c2ccc(S(=O)(=O)O)cc2S(=O)(=O)O)c(COP(=O)(O)O)c(C=O)c1O
